Values of other authors as cited in patent US20250320252A1 (The Scripps Research Institute, priority 2021, published 2025).

Settings: cited from earlier work

Substance: Semaglutide
- rodent half-life: ~8 h
